Read-outs that look alike come from different tables or passages of the source.
Assay: Stationary and time-resolved absorption and emission spectroscopy (photophysics)
Format: physicochemical
Text: Details of the stationary and time-resolved absorption and emission spectroscopy procedures used for the mechanistic studies are given in Supplementary Section 3.3.

| Substance | λmax (Supplementary Fig. 4) [nm] | λmax [nm] |
| --- | --- | --- |
| MeO-thioxanthone [2b] | 409 |  |
| Riboflavin tetraacetate [RTA] |  | 450 |
